From patent publication US20240116920A1 (priority 2020, published 2024)

By UniProt entry, the sequences of proteins in these tests, tags left out. Where a name states a change or a piece, a line headed by the entry shows the natural chain unless it says otherwise.
UniProt P29597: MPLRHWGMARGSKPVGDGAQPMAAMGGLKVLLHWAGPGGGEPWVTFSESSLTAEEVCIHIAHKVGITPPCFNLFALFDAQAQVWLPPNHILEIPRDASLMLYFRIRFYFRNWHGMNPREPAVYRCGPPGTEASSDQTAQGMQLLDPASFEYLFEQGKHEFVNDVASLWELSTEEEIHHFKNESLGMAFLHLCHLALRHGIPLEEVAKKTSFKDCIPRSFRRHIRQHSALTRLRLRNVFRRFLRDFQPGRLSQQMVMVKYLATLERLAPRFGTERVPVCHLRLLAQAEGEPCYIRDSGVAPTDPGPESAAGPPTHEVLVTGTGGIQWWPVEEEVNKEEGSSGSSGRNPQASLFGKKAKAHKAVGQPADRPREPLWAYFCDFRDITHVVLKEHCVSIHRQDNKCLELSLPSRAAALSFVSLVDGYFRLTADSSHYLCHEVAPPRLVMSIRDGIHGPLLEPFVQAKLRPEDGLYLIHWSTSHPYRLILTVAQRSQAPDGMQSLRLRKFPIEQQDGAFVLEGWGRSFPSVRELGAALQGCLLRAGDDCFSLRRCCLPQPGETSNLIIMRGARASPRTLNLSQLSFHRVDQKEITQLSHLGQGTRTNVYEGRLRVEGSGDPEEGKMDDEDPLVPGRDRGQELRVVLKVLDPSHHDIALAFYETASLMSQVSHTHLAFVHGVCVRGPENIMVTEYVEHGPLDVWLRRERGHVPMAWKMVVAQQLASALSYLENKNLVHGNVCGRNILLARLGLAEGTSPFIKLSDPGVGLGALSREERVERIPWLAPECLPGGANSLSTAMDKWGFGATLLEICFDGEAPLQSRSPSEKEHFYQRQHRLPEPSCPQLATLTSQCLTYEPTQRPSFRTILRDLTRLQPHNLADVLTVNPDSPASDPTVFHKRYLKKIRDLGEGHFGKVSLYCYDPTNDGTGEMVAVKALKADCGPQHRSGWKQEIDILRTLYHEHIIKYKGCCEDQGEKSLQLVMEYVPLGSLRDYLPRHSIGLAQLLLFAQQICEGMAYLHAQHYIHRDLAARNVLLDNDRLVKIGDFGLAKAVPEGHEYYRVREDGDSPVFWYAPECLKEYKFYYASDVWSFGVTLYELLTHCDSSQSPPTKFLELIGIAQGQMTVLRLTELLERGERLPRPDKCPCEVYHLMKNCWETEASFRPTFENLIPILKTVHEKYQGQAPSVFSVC
UniProt O60674: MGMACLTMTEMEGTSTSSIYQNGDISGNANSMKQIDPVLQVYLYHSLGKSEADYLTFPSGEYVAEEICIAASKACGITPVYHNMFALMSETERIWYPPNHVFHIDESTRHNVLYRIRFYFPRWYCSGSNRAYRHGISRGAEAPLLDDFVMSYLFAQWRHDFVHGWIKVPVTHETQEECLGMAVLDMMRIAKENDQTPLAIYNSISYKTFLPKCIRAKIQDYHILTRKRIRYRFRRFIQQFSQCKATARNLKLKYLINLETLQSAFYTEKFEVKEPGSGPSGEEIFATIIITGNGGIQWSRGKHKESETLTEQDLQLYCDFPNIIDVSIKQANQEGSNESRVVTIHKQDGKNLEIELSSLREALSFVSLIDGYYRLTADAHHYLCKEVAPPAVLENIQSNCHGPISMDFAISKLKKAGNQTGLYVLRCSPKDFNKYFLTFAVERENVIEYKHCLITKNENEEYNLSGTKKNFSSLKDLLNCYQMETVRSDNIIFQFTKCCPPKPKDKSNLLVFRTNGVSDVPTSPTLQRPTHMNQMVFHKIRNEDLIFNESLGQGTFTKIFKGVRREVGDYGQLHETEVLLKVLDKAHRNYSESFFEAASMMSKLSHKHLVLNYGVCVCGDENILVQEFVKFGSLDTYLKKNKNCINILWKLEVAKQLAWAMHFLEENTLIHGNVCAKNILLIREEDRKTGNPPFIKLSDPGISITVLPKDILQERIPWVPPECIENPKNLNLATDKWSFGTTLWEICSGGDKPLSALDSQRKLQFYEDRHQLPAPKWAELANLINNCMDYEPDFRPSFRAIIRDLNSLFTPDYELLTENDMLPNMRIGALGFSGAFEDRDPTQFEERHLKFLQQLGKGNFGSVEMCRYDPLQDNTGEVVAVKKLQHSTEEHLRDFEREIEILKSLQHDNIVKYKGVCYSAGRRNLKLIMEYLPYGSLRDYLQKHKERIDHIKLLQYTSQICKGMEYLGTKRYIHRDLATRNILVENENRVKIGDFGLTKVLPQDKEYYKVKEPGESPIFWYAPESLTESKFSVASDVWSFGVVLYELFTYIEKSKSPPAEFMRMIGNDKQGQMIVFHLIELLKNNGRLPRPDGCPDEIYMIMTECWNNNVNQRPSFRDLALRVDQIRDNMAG

Experiments:
TYK2 [1] = target: T1, TYK2 (Homo sapiens, UniProt P29597); assay: biochemical
JAK2 = JAK2 (Homo sapiens, UniProt O60674); conditions: read-out: IC50 JAK2
TYK2 [2] = target: T1, TYK2; conditions: read-out: IC50 TYK2

Molecule	pIC50 (TYK2 [1])	pIC50 (JAK2)	pIC50 (TYK2 [2])
O=C(Nc1nc2cccc(-c3ccc(CN4CCS(=O)(=O)CC4)cc3)n2n1)C1CC1 [filgotinib, reference compound]	7.15		
4-(42S,4S)-1-(4-trifluoromethyl)-2-methylpiperidin-4-yl)amino)-N-methyl-1H-pyrrolo[2,3-b]pyridine-5-carboxamide [57a]		7.77	7.23
4-(42S,4S)-1-(4-Chlorobenzyl)-2-methylpiperidin-4-yl)amino)-N-methyl-1H-pyrrolo[2,3-b]pyridine-5-carboxamide [56a]			8.03

pIC50: −log10 of the molar value. Like-named read-outs stand apart in the source and are kept apart here.
